# Earlier results as cited in paper PMC3627359 (Journal of medicinal chemistry, 2013).
# Tested on: ALS
# Details: ALS patients; cited from earlier work
compound,measurement,value
Nc1nc2ccc(OC(F)(F)F)cc2s1 [riluzole],Extension of survival,2-3 months
